Target: Metabotropic glutamate receptor 5 (Homo sapiens, UniProt P41594)
Experiment: Tested in vitro binding affinity for displacement of [3H]M-MPEP from membrane of L(-tk) cells expressing the Metabotropic glutamate receptor 5, activity expressed as IC50

Amino acid sequences for entries named in this document (tags omitted).
UniProt P41594, whole entry: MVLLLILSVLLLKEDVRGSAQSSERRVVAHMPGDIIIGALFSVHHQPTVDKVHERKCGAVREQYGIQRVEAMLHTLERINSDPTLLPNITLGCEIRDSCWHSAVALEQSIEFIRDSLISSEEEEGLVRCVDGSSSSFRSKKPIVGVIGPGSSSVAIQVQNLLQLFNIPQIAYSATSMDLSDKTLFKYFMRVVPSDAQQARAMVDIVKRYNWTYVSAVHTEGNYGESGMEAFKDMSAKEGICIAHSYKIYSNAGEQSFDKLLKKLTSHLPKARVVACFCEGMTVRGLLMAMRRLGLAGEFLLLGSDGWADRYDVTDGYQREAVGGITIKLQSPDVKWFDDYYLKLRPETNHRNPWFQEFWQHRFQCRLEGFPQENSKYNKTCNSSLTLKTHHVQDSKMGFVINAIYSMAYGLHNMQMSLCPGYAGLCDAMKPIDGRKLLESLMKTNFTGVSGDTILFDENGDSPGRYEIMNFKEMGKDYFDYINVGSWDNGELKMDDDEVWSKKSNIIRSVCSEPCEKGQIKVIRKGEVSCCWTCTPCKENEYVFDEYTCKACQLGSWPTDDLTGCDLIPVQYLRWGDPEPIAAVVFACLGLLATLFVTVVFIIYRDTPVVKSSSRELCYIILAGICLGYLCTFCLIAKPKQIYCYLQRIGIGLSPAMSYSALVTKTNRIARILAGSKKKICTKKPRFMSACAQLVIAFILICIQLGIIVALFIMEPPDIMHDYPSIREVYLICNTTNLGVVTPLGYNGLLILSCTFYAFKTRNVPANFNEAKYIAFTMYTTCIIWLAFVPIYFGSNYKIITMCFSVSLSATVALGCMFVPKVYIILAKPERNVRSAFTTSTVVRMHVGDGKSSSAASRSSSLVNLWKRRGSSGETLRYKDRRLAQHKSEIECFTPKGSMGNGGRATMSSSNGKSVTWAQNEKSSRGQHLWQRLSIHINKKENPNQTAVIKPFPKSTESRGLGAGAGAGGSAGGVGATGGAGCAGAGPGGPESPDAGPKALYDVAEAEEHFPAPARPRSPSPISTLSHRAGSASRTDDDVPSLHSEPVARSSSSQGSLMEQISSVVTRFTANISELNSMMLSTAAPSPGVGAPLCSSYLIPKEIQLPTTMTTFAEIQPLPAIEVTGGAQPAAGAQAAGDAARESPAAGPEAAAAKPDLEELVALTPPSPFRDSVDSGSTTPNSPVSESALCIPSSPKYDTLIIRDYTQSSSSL

IC50: 20 nM
SMILES: Cc1cccc(C#Cc2ccccc2)n1

From ChEMBL document CHEMBL1135040, “[(3)H]-M-MPEP, a potent, subtype-selective radioligand for the metabotropic glutamate receptor subtype 5” (Bioorg Med Chem Lett, 2002)
